Experimental findings from patent US20090062180 are described below.

Series [1] has as its target T1, Peptide No. 7 KEEPPSPPQS(p)P (derived from Heat shock factor-1).
T1 chain: KEEPPSPPQSP

Series [2] has as its target T2, Peptide No. 1 KRREILS1RRPS2(p)YR (derived from CREB).
T2 chain: KRREILSRRPSYR

Series [3] concerns the target T3, Peptide No. 10 KEEPPAPPQSP
T3 chain: KEEPPAPPQSP

The target in series [4] is T4, Peptide No. 11 KEEPPAPPQEP
T4 chain: KEEPPAPPQEP

Series [5] addresses T5, Peptide No. 4 ILSRPPY(p)YR.
T5 chain: ILSRPPYYR

In series [6] the target is T6, Peptide No. 8 KEEPPAPPQS(p)P (pAHSF).
T6 chain: KEEPPAPPQSP

The target in a further series is T7, Peptide No. 3 ILSRPPEYR
T7 chain: ILSRPPEYR

Series [7] deals with T8, Peptide No. 9 KEAPPAPPQS(p)P (L803).
T8 chain: KEAPPAPPQSP

In series [8] the target is T9, Peptide No. 12 PAPPQS(p)P.
T9 chain: PAPPQSP

In the next series the target is T10, Peptide No. 14 EPPAPR.
T10 chain: EPPAPR

The next series deals with T11, Peptide No. 13 EPPAPRRE
T11 chain: EPPAPRRE

The target in series [9] is T12, Peptide No. 5 KRREILARRPS(p)YR (Hz13).
T12 chain: KRREILARRPSYR

B1: Purified recombinant rabbit GSK-3β (glycogen synthase kinase-3β) (protein)
chain: MSGRPRTTSFAESCKPVQQPSAFGSMKVSRDKDGSKVTTVVATPGQGPDRPQEVSYTDTKVIGNGSFGVVYQAKLCDSGELVAIKKVLQDKRFKNRELQIMRKLDHCNIVRLRYFFYSSGEKKDEVYLNLVLDYVPETVYRVARHYSRAKQTLPVIYVKLYMYQLFRSLAYIHSFGICHRDIKPQNLLLDPDTAVLKLCDFGSAKQLVRGEPNVSYICSRYYRAPELIFGATDYTSSIDVWSAGCVLAELLLGQPIFPGDSGVDQLVEIIKVLGTPTREQIREMNPNYTEFKFPQIKAHPWTKVFRPRTPPEAIALCSRLLEYTPTARLTPLEACAHSFFDELRDPNVKLPNGRDTPALFNFTTQELSSNPPLATILIPPHARIQAAASTPTNATAASDANAGDRGQTNNAASASASNST
Take B1: the Substrate functionality result in series [1] is reported as “+”; in series [2], “+”; in [3] it was “-”; in series [4], “-”; in series [5] it was “-”; in series [6] it was “-”. Besides, the Substrate functionality entry (in the series with Peptide No. 3 ILSRPPEYR; in series [7]; in [8]; with Peptide No. 14 EPPAPR; with Peptide No. 13 EPPAPRRE; in series [9]) was “-” in each case.
